Earlier results in publication PMC11019746, “Illuminating Neuropeptide Y Y4 Receptor Binding: Fluorescent Cyclic Peptides with Subnanomolar Binding Affinity as Novel Molecular Tools” (ACS Pharmacology & Translational Science, 2024).

Sequences of proteins named here, by UniProt entry; tags and fusion partners are left off. A change or cut given only in a name is not applied to a line headed by its entry.
UniProt Q15761: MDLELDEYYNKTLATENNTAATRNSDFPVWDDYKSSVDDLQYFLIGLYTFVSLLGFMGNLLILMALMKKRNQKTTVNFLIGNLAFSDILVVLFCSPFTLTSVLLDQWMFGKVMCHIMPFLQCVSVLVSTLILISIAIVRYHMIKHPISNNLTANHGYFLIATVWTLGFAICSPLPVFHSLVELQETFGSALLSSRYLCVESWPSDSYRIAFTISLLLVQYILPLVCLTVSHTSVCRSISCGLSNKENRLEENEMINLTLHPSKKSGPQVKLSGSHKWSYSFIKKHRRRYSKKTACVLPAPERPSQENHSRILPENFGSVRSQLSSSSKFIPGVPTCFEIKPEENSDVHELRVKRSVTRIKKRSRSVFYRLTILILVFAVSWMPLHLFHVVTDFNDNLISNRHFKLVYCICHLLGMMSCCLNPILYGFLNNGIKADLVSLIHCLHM

Legend:
Settings in all cases: cited from earlier work
[1] = molecular target: Y4 receptor (Homo sapiens) (UniProt P50391)
[2] = molecular target: Sulfo-Cy5-[K4,Nle17,30]hPP (1) (Homo sapiens) (UniProt P01298)
[3] = molecular target: [3H]propionyl-pNPY (Sus scrofa) (UniProt P01304); experiment: radioligand binding

Q: For “Sulfo-Cy5-[K4,Nle17,30]hPP (1) (from UniProt P01298)”, which Kd [1] is on record?
A: The Kd was 11 nM.

Q: For Y4 receptor (from UniProt P50391), which Kd [2] is on record?
A: Its Kd is 11 nM.

Q: Which Kd [3] does the source give for Y5 receptor (from UniProt Q15761) here?
A: Its Kd is 11 nM.
